Results reported in publication PMC3256935 (Journal of Medicinal Chemistry, 2011).

Key:
[1] = tested on: incorporation of radiolabeled myristoyl-CoA into proteins; settings: incubation of the parasites with compound; cited from earlier work
[2] = tested on: T. b. brucei GVR35; settings: in vivo
[3] = tested on: T. brucei overexpressing TbNMT; settings: TbNMT overexpressed 5-fold in T. brucei; cited from earlier work
[4] = molecular target: T1, TbNMT (Trypanosoma brucei brucei, UniProt Q388H8); settings: varying CAP5.5 concentration; cited from earlier work
T1 sequence (Q388H8 1-446): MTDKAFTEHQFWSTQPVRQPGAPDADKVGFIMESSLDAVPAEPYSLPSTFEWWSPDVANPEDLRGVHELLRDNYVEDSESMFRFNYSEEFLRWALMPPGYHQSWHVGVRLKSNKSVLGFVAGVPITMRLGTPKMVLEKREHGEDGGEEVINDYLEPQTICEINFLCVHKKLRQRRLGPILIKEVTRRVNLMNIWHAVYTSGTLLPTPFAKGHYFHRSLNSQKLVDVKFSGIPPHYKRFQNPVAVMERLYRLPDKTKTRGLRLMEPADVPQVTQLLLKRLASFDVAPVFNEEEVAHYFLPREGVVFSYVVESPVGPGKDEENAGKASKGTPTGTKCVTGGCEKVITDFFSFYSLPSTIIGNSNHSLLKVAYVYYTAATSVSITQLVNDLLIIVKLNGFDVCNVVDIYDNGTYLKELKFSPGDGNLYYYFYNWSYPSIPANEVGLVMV

SMILES | effect on incorporation of radiolabeled myristoyl-CoA into proteins [1] | survival in stage 2 HAT model [2] | reduced sensitivity on overexpression of TbNMT [3] | mode of inhibition against varying concentrations of substrate peptide [4]
Cc1nn(C)c(C)c1NS(=O)(=O)c1c(Cl)cc(-c2ccnc(N3CCNCC3)c2)cc1Cl [Compound 63, 2,6-Dichloro-4-(2-piperazin-1-ylpyridin-4-yl)-N-(1,3,5-trimethyl-1H-pyrazol-4-yl)benzenesulfonamide] | prevented incorporation of radiolabeled myristoyl-CoA into proteins | No difference in survival time from that of vehicle control animals | 8 fold | –
COc1cc(C)c(S(=O)(=O)Nc2c(C)nn(C)c2C)c(C)c1C [Compound 1, 4-Methoxy-2,3,6-trimethyl-N-(1,3,5-trimethyl-1H-pyrazol-4-yl)benzenesulfonamide] | – | – | – | competitive for substrate binding
